Assay results taken from US8846682B2, “Compound suitable for the treatment of synucleopathies” (Neuropore Therapies, Inc., priority 2009, dated 2014).

How the values were obtained:
[1] = target: T1, SYN (Homo sapiens, UniProt P37840)
[2] = target: T1, SYN; conditions: B103 cells, immunoblot
[3] = target: T1, SYN; remark: listed apart in the source

## CCCCNC(=O)C(Cc1c[nH]c2ccccc12)NC(=O)c1cnc(N2CCNCC2)s1 (stereo not drawn) [NPT200-5]
[1]; 0.1 μM concentration, SYN at 5 μM
  reduction of SYN aggregation: 50%
[1]; early and later time points of the oligomerization process, 37° C., 0-24 hours, FIG. 4
  blocking SYN aggregation: completely blocking SYN aggregation
[2]; 0.1 μM concentration
  reduction of SYN levels: 50%
[2]; LV-SYN, 24 hrs treatment, soluble and insoluble fractions, FIG. 5
  reduction in the levels of aggregates (but also the monomers) in the various fractions: 50-60%
[3]; 0.1 μM concentration, immunocytochemistry/confocal
  reduction of SYN levels: 50%
[3]; 24 hrs treatment in serum free media, confocal microscopy, FIG. 6
  reduction in the levels of aggregates in the neuronal cell bodies and neurites: 60-65%

Where two headings read alike, the source gives them in different places.
